For 1 compound, Ki results are on record in ChEMBL document CHEMBL1129964, “Design of highly potent noncovalent thrombin inhibitors that utilize a novel lipophilic binding pocket in the thrombin active site” (J Med Chem, 1997).

The test deals with Prothrombin (Homo sapiens, UniProt P00734). Description: Binding affinity towards thrombin.

Molecules are shown by their SMILES.

The compound `CS(=O)(=O)N[C@H](Cc1ccccc1)C(=O)N1CCC[C@H]1C(=O)NCC1CCC(N)CC1` (stereo partly specified) gave a Ki of 3 nM.

By Ki is commonly meant the equilibrium dissociation constant of an inhibitor or competing ligand from its target. Read a low Ki as a stronger hold on the target.
